Among the data in patent US20190308988A1, “OPIOID RECEPTOR ANTAGONIST PRODRUGS” (Nirsum Laboratories, Inc., priority 2017, published 2019) are IC50 values, retold here.

By UniProt entry, the sequences of proteins in these tests, tags left out. Where a name states a change or a piece, a line headed by the entry shows the natural chain unless it says otherwise.
UniProt P41145: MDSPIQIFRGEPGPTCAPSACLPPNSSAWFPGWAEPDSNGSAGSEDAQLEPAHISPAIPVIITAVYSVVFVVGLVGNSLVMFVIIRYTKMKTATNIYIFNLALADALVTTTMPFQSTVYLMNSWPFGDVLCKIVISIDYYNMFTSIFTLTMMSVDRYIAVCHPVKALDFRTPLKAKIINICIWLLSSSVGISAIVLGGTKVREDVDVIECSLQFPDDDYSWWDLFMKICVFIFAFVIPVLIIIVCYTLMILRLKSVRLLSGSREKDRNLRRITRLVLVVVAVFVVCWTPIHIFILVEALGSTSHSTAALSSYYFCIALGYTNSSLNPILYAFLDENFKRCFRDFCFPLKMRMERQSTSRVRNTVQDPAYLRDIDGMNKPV

In this test the target is T1, KOR (Homo sapiens, UniProt P41145).
T1 construct: expressed in transfected cells
Nature of the test: Opioid receptor binding assay, KOR ([3H]Diprenorphine). The settings on record: [3H]Diprenorphine 0.3 nM. The procedure: Receptor binding assays were performed to assess the ability of compounds to inhibit binding to radiolabeled ligand. […] The general observation is that prodrug derivatization greatly reduces the binding affinity to the opioid receptors, in some cases by several orders of magnitude.
The stable cell lines were established and prepared cell membrane obtained using these cell lines.
1) Transfer 1 μl of specified concentration compound to assay plate according to the plate map for nonspecific binding. Transfer 1 μl of DMSO to assay plate according to plate map for total binding. 2) Follow the plate map. Dispense 99 μl of membrane stocks into the plate. 3) Add 100 μl of radio ligand. 4) Seal the plates. Incubate at RT for 1 hour. 5) Soak the Unifilter-96 GF/C filter plates with 50 μl of 0.3% PEI per well for at least 0.5 hour at room temperature. 6) When binding assays are completed, filter the reaction mixture through GF/C plates using Perkin Elmer Filtermate Harvester, and then wash each plate for 4 times with cold wash buffer. 7) Dry the filter plates for 1 hour at 50 degrees. 8) After drying, seal the bottom of the filter plate wells using Perkin Elmer Unifilter-96 backing seal tape. Add 50 μl of Perkin Elmer Microscint 20 cocktail. Seal top of filter plates with Perkin Elmer TopSeal-A sealing film. 9) Count ^3H trapped on filter using Perkin Elmer MicroBeta2 Reader second day. […]

As a reminder, the IC50 is the concentration needed to halve the response being measured. A low value points to greater potency. On to `C=C1CC[C@@]2(O)[C@H]3Cc4ccc(O)c5c4[C@@]2(CCN3CC2CC2)[C@H]1O5` [nalmefene, 17-cyclopropylmethyl-4,5α-epoxy-6-methylenemorphinan-3,14-diol, reference compound], for which the IC50 was 2 nM.
